Test results reported in ChEMBL document CHEMBL6092203, “Discovery of Novel PROTAC-Based HPK1 Degraders with High Potency and Selectivity for Cancer Immunotherapy” (J Med Chem, 2024).

Test: Oral bioavailability in mouse at 10 mg/kg measured upto 24 hrs by LC-MS analysis
Type: ADME, organism-based
Conditions: in vivo

O=C1CCN(c2cc(C(=O)N3CCC(CC4CCN(c5ccc(-c6cnc7[nH]cc(-c8cnn(CC(F)(F)F)c8)c7n6)cn5)CC4)CC3)ccc2Cl)C(=O)N1
bioavailability: 20.7%
